Source: US20100189647A1, “Experimental Animal As Pathological Model, Method of Producing the Experimental Animal, and Method of Using the Experimental Animal” (priority 2006, published 2010)

System: hemoglobin
Assay: Methemoglobin formation in blood after intraperitoneal administration
Format: in vivo, rat
Conditions: 50 mg/kg intraperitoneal
Protocol: A cannula was placed beforehand in the carotid artery of rats, and production of methemoglobin converted from hemoglobin (hereinafter referred to as methemoglobin) was tracked using blood samples collected over time, at 15 and 30 min and 1, 2, 3, 4, 5, and 6 h, from the placed silicon tube.

O=NO [sodium nitrite]
blood methemoglobin level (30 min after administration): 4.30 g/dL | blood methemoglobin level (1 h after administration): 2.93 g/dL | blood methemoglobin level (2 h after administration): 1.70 g/dL | blood methemoglobin level (3 h after administration): 1.0 g/dL | blood methemoglobin level (4 h after administration): 0.52 g/dL | blood methemoglobin level (5 h after administration): 0.22 g/dL | blood methemoglobin level (within 6 h (returned to baseline level before administration)): 0.16 g/dL
